Values of other authors, collected in patent US7605179B2, “Napthoquinone derivatives as inhibitors of tau aggregation for the treatment of alzheimer's and related neurodegenerative disorders” (Wista Laboratories Ltd., priority 2001, dated 2009).

Test system: cultured CNS neurones
Conditions: in the range 10 nM—1 μM; cited from earlier work

menaquinone [Compound K2]
survival promoting effects: prominent survival promoting effects
